# Patent publication US11193164B2, “Methods of diagnosing and treating cancer targeting extrachromosomal DNA” (The Regents of the University of California, priority 2017, dated 2021)
# Tested on: GBM39 cells
# Experiment: Next generation sequencing fine structure analysis of EGFRvIII amplification in GBM39 cultures
# Assay type: cell-based, human
# Settings: Erlotinib removed (biological replicates in rows 5 and 6), FIG. 13B
smiles,measurement,value
C#Cc1cccc(Nc2ncnc3cc(OCCOC)c(OCCOC)cc23)c1 [Erlotinib],Average copy numbers of amplified intervals as determined from sequencing analysis,100-105
